# Source: PubChem BioAssay AID2147 (National Center for Advancing Translational Sciences (NCATS), 2009)
# By UniProt entry, the sequences of proteins in these tests, tags left out. Where a name states a change or a piece, a line headed by the entry shows the natural chain unless it says otherwise.
# UniProt B2RXH2: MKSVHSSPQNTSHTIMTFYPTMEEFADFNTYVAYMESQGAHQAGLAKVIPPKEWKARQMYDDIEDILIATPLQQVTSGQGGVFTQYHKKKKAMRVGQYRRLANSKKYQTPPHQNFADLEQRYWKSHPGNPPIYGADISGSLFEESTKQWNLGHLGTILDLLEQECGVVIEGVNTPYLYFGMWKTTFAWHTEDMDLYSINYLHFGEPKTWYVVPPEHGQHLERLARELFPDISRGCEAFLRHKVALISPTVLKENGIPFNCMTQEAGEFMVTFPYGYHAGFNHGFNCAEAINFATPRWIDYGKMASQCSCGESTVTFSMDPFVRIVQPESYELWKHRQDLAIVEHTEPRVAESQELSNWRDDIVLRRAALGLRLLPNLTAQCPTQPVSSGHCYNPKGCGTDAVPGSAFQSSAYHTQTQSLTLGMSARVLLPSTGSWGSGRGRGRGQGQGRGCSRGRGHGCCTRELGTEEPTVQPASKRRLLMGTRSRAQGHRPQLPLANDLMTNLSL
# The whole screen tested about 230,000 compounds, of which about 3,600 (1.6%) were called active. All entries are inconclusive by the source's own rule. Clear calls are listed elsewhere. The call rests on the fitted dose curve; in most records, active means well fitted inhibition curve with a large enough effect (not every such curve was filed as active); inconclusive means small, poorly fitted or top-dose-only effect, or another doubt; inactive means no such curve, though single readings can be large or run the other way.
# Target: Lysine-specific demethylase 4E (Homo sapiens) (UniProt B2RXH2)
# Experiment: qHTS Assay for Inhibitors of Human Jumonji Domain Containing 2E (JMJD2E)
# Conditions: JMJD2E catalytic domain, FDH-coupled NADH fluorescence (FDH is formaldehyde dehydrogenase)
# Further: nearly all actives have a fitted effect of over 50% in size.
# Potency means the concentration at half of the fitted maximal effect.
row,SMILES,Potency
1,CCOP(=O)(Nc1ccc(C)cn1)OCC,inconclusive: 28.2 µM
2,Nc1cccc2c([As](=O)(O)O)cccc12,inconclusive: 25.1 µM
3,CCOP(=O)(Nc1cccc2ccccc12)OCC,inconclusive: 35.5 µM
4,CC(C)c1ccc(OP(=O)(Nc2ccccn2)Oc2ccccc2F)cc1 (configuration not stated),inconclusive: 28.2 µM
5,Cc1cc(SC(NC=O)C(Cl)(Cl)Cl)ncn1 (configuration not stated),inconclusive: 35.5 µM
6,CC(C)(C)C(=O)NC(Sc1ccncn1)C(Cl)(Cl)Cl (configuration not stated),inconclusive: 11.2 µM
7,Cc1ccc(NP(=O)(Oc2ccccc2)Oc2ccccc2)nc1,inconclusive: 28.2 µM
8,CC1=NCCc2c1[nH]c1ccccc21,inconclusive: 28.2 µM
9,Cc1ccc(NP(=O)(Oc2ccccc2F)Oc2ccccc2F)nc1,inconclusive: 35.5 µM
10,Nc1cccc2ccc([As](=O)(O)O)cc12,inconclusive: 28.2 µM
11,Cc1ccccc1OP(=O)(Nc1ccccn1)Oc1ccccc1C,inconclusive: 28.2 µM
12,CCOc1ccc(C2=NCC(CBr)S2)cc1 (configuration not stated),inconclusive: 6.31 µM
